The text below walks through data of paper PMC8883701 (Genome Biology, 2022).

Protein sequences, listed by entry. Tags and fused reporters are not part of them.
UniProt P27694, whole entry, chain 1 of 3: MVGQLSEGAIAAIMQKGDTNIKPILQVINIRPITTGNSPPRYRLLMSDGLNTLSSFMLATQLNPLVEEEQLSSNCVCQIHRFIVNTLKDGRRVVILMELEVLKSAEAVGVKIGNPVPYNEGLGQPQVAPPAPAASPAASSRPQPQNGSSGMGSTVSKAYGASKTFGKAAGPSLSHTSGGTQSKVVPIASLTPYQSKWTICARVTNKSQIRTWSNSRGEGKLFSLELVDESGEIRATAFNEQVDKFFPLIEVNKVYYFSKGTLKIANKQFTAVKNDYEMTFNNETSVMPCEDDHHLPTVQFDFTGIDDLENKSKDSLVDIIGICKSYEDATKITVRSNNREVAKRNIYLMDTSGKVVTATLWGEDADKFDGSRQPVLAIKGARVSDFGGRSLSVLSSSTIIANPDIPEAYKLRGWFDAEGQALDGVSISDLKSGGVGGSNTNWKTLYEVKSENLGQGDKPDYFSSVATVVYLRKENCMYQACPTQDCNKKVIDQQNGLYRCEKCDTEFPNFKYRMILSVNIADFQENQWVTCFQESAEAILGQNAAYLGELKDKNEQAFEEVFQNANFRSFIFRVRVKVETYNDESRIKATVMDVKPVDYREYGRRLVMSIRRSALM
recombinant RPA (RPA1, RPA2 and RPA3 co-purified), UniProt P15927, whole entry, chain 2 of 3: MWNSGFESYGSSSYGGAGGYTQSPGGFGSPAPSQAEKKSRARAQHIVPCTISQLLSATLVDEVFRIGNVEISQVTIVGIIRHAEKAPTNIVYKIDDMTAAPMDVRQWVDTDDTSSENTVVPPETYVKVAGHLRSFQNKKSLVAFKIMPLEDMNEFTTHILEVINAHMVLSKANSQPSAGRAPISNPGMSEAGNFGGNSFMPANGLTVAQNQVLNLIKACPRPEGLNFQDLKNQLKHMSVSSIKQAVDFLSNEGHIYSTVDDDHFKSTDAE
recombinant RPA (RPA1, RPA2 and RPA3 co-purified), UniProt P35244, whole entry, chain 3 of 3: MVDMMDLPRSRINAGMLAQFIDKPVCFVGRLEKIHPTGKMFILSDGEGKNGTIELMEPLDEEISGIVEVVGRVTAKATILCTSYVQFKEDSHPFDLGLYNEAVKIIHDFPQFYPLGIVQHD

This assay concerns the target T1, recombinant RPA (RPA1, RPA2 and RPA3 co-purified) (UniProt P27694 1-616; P15927 1-270; P35244 1-121).
T1 construct: RPA1 subunit; RPA2 subunit; RPA3 subunit; source: bacteria cells, co-purified; copies: + +
The assay is described as follows: BLI; RPA immobilised on the sensor, various concentrations of recombinant LAP2α; global fitting; apparent KD. The following applies: both partners purified. For orientation: Biolayer interferometry detects binding as a change in optical thickness at a sensor tip.

B1: His-tagged LAP2α (LAP2α/wt) (natural protein, UniProt P42166 1-694, looked up)
chain: MPEFLEDPSVLTKDKLKSELVANNVTLPAGEQRKDVYVQLYLQHLTARNRPPLPAGTNSKGPPDFSSDEEREPTPVLGSGAAAAGRSRAAVGRKATKKTDKPRQEDKDDLDVTELTNEDLLDQLVKYGVNPGPIVGTTRKLYEKKLLKLREQGTESRSSTPLPTISSSAENTRQNGSNDSDRYSDNEEGKKKEHKKVKSTRDIVPFSELGTTPSGGGFFQGISFPEISTRPPLGSTELQAAKKVHTSKGDLPREPLVATNLPGRGQLQKLASERNLFISCKSSHDRCLEKSSSSSSQPEHSAMLVSTAASPSLIKETTTGYYKDIVENICGREKSGIQPLCPERSHISDQSPLSSKRKALEESESSQLISPPLAQAIRDYVNSLLVQGGVGSLPGTSNSMPPLDVENIQKRIDQSKFQETEFLSPPRKVPRLSEKSVEERDSGSFVAFQNIPGSELMSSFAKTVVSHSLTTLGLEVAKQSQHDKIDASELSFPFHESILKVIEEEWQQVDRQLPSLACKYPVSSREATQILSVPKVDDEILGFISEATPLGGIQAASTESCNQQLDLALCRAYEAAASALQIATHTAFVAKAMQADISQAAQILSSDPSRTHQALGILSKTYDAASYICEAAFDEVKMAAHTMGNATVGRRYLWLKDCKINLASKNKLASTPFKGGTLFGGEVCKVIKKRGNKH
notes: LAP2α, alpha splicing product of TMPO; also called recombinant LAP2α; source: insect cells, purified
Consider B1, for which the Kd turned out to be 22.4 nM.
